Measured values as given in EP1752538A1.

Assays:
[1] = target: human factor Xa (human) (UniProt P00742); test: enzyme inhibition, factor Xa 0.87 nM, aprotinin 31 µM
[2] = target: human plasmin (human) (UniProt P00747); test: enzyme inhibition kinetics, plasmin 50 pM
[3] = target: human tissue kallikrein (human) (UniProt P06870); test: enzyme inhibition kinetics, tissue kallikrein 0.35 nM, PFR-AMC substrate
[4] = target: bovine pancreatic kallikrein (bovine); test: enzyme inhibition kinetics, kallikrein 92.0 pM
[5] = target: bovine trypsin (type III) (bovine) (UniProt P00760); test: enzyme inhibition kinetics, trypsin 48.5 pM, GPK-AMC substrate
[6] = target: bovine trypsin (type III) (bovine) (UniProt P00760); test: enzyme inhibition kinetics, trypsin 50 pM
[7] = target: bovine pancreatic kallikrein (bovine); test: enzyme inhibition kinetics, kallikrein 92.0 pM, PFR-AMC substrate
[8] = target: human tissue kallikrein (human) (UniProt P06870); test: enzyme inhibition kinetics, tissue kallikrein, PFR-AMC substrate
[9] = target: bovine trypsin (type III) (bovine) (UniProt P00760); test: enzyme inhibition kinetics, trypsin 48.5 pM
[10] = target: bovine pancreatic kallikrein (bovine); test: enzyme inhibition kinetics, kallikrein 100 pM

| % Inhibition at 31 µM [1] | pKi [2] | pKi [3] | pKi [4] | pKi [5] | pKi [6] | pKi [7] | pKi [8] | pKi [9] | pKi [10] | Substance |
| --- | --- | --- | --- | --- | --- | --- | --- | --- | --- | --- |
| 5% | 7.89 | – | – | – | – | – | – | – | – | Recombinant aprotinin (Trasylol) (from UniProt P00974 36-93) (other; other documents disagree on this pair) |
| – | – | 11.40 | 10.70 | 9.10 | 9.10 | 10.70 | 11.40 | 9.10 | 10.70 | Recombinant aprotinin (Trasylol) (from UniProt P00974 36-93) |

pKi: −log10 of the molar value.
